In PubChem BioAssay AID1468 (National Center for Advancing Translational Sciences (NCATS), 2008) one finds activity, negative = inhibition data, which are given here for 79 molecules.

By UniProt entry, the sequences of proteins in these tests, tags left out. Residues count along the entry.
UniProt P10636, 561-689 P618L limits assumed: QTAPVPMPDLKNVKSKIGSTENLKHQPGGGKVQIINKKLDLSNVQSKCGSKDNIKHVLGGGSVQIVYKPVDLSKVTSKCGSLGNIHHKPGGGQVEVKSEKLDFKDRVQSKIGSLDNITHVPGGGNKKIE

This is a selection; strong and weak results do not stand in their true shares. Records with an inconclusive call do not appear. Activity calls are given as the source filed them. The call rests on the fitted dose curve; in most records, active means well fitted inhibition curve with a large enough effect; inconclusive means small, poorly fitted or top-dose-only effect, or effect the other way; inactive means flat fitted curve, though single readings scatter.
On the % scale 0 is the no-effect control and ±100 the full control effect.

The test has as its target Microtubule-associated protein tau (Homo sapiens) (UniProt P10636). In words: qHTS for Inhibitors of Tau Fibril Formation, Fluorescence Polarization. Further: nearly all actives have a fitted effect of over 55% in size. The conditions noted are these: K18 P301L tau heparin fibrillization, Alexa594 FP, 6 h; at 57.7 µM (top of the series). The text has this:
NIH Molecular Libraries Probe Production Network [MLPCN]
NIH Chemical Genomics Center [NCGC]
Assay Provider: Carlo Ballatore, University of Pennsylvania
The microtubule-associated protein tau is an abundant protein in the axons of neurons that stabilizes microtubules. With its ability to modulate microtubule dynamics, tau contributes directly or indirectly, to key structural and regulatory cellular functions. Particularly important is the influence tau exerts on axonal transport, which allows signaling molecules, trophic factors and other essential cellular constituents to travel along the axons. Under pathological conditions, tau becomes sequestered into insoluble aggregates called neurofibrillary tangles. This phenomenon is believed to have pathological consequences by promoting axonal transport deficits that ultimately lead to synaptic dysfunction and neuronal loss. To identify inhibitors of tau aggregation, a heparin-induced tau fibril formation assay was used that employed a recombinantly expressed fragment of tau, K18 (Q242-E372), bearing a P301L mutation (Gustke et al. 1994; Hong et al. 1998).
Gustke, N., B. Trinczek, et al. (1994). "Domains of tau protein and interactions with microtubules." Biochemistry 33(32): 9511-22.
Hong, M., V. Zhukareva, et al. (1998).
Li, W. and V. M. Lee (2006). "Characterization of two VQIXXK motifs for tau fibrillization in vitro." Biochemistry 45(51): 15692-701.
von Bergen, M., S. Barghorn, et al. (2001). "Mutations of tau protein in frontotemporal dementia promote aggregation of paired helical filaments by enhancing local beta-structure." J Biol Chem 276(51): 48165-74.
NCGC Assay Protocol Summary:
For screening, 2 uL/well human K18 P301L (15 uM unlabeled and 0.24 uM Alexa 594-labeled tau final concentrations) in reagent buffer (100 mM sodium acetate pH 7) was dispensed into black solid 1536-well plates (Grenier) using a solenoid-based dispenser. Following transfer of 23 nL compound or DMSO vehicle by a pin tool, 2 uL/well heparin (20 uM final concentration) in reagent buffer was added and the plate centrifuged 15 s at 1000 RPM. Plates were incubated 6 hr at 37 C and then 1 uL/well ThT (30 uM final concentration) was added. After a 1 hr ambient incubation, the plates were read by an Envision (Perkin Elmer) to monitor Alexa 594 FP (555 nm excitation and 632 nm emission).
Keywords: NIH Roadmap, MLPCN, MLI, MLSMR, NCGC, qHTS, tau, tauopathies, Alzheimer's disease, fibril, neurodegeneration, aggregation
For orientation: Quantitative high-throughput screening tests each substance at several concentrations.
For the molecule `CP(=O)(Oc1ccccc1)OC(c1ccccc1)C(F)(F)F` (centres undefined), the activity, negative = inhibition was inactive: -6.19%. To `CP(=O)(Nc1ccc(SC(F)(F)F)cc1)Oc1ccc(Cl)cc1` (centres undefined) belongs inactive: -3.79%; to `Cc1cccc(C)c1OP(C)(=O)Nc1ccc(SC(F)(F)F)cc1` (centres undefined), inactive: -3.42%. To `Cc1cc(C)cc(OP(C)(=O)Nc2ccc(SC(F)(F)F)cc2)c1` (centres undefined) belongs inactive: -13.6%; to `CP(=O)(NC(=O)Nc1ccccc1)Oc1ccccc1` (centres undefined), inactive: -11.7%; to `CCOP(C)(=S)SCC(=O)NC(C)C(=O)O` (centres undefined), inactive: 3.65%.

In the case of `CCOC(=O)c1ccc(NP(C)(=O)Oc2ccc(OC)cc2)cc1` (centres undefined), the activity, negative = inhibition was inactive: 3.53%.

Regarding `CP(=O)(Nc1ccccn1)Oc1ccc(Cl)cc1` (centres undefined), the activity, negative = inhibition was inactive: -2.02%. To `CP(=S)(Nn1cnnc1)Oc1ccccc1` (centres undefined) belongs inactive: 0.162%.

With `COc1ccccc1OP(C)(=O)Nc1ccccc1` (centres undefined), the activity, negative = inhibition is inactive: 3.47%. To `CP(=O)(Nc1ccccc1Br)Oc1ccccc1` (centres undefined) belongs inactive: 0.176%. On to `Cc1cccc(C)c1OP(C)(N)=O` (centres undefined), for which the activity, negative = inhibition is inactive: -4.03%.

On to `CC(C)(C)c1ccc(OP(C)(=O)Nc2ccc(SC(F)(F)F)cc2)cc1` (centres undefined), for which the activity, negative = inhibition is inactive: 8.96%.

Consider `O=[N+]([O-])c1ccc2c(c1)C=Nc1ccccc1O2`, for which the activity, negative = inhibition is inactive: 3.93%. To `CCOC(=O)c1ccc(NP(C)(=O)Oc2ccccc2)cc1` (centres undefined) belongs inactive: 6.76%; to `Cc1ccc(NP(C)(=O)Oc2ccccc2)c(C)c1` (centres undefined), inactive: -0.354%; to `COc1ccccc1OP(C)(=O)Nc1ccc(C)cc1` (centres undefined), inactive: 8.6%. Take `COc1ccc(OP(C)(=O)Nc2cccc(F)c2)cc1` (centres undefined): the activity, negative = inhibition is inactive: -4.06%. To `COc1ccccc1OP(C)(=O)Nc1cc(Cl)ccc1C` (centres undefined) belongs inactive: 2.01%; to `Cc1cc(C)cc(OP(C)(N)=O)c1` (centres undefined), inactive: -13.1%.

Take `CCN(CC)CCCOC(=O)C(O)(c1ccccc1)c1ccccc1`: the activity, negative = inhibition was inactive: -13.6%. For `COc1ccccc1OP(C)(=O)Nc1cccc(Br)c1` (centres undefined), the activity, negative = inhibition was inactive: 4.06%. To `Cc1cc(C)cc(OP(C)(=O)Nc2ccc(C)cc2C)c1` (centres undefined) belongs inactive: -0.625%; to `CCOC(=O)c1ccc(NP(C)(=O)Oc2cc(C)cc(C)c2)cc1` (centres undefined), inactive: 8.02%; to `Cc1cc(C)cc(OP(C)(=O)Nc2ccccn2)c1` (centres undefined), inactive: 2.47%. To `CP(=O)(Nc1cccc(Br)c1)Oc1ccccc1` (centres undefined) belongs inactive: -13.4%; to `Cc1ccc(C)c(NP(C)(=O)Oc2ccccc2)c1` (centres undefined), inactive: -3.91%.

Regarding `O=[N+]([O-])OCC(CO[N+](=O)[O-])(CO[N+](=O)[O-])CO[N+](=O)[O-]`, the activity, negative = inhibition is inactive: 1.09%.

For `CC1=NCCc2c1[nH]c1ccccc21.O=[N+]([O-])c1cc([N+](=O)[O-])c(O)c([N+](=O)[O-])c1`, the activity, negative = inhibition is inactive: 5.87%.

For the molecule `O=[N+]([O-])c1cc([N+](=O)[O-])c(Nc2nnnn2CCO)c([N+](=O)[O-])c1`, the activity, negative = inhibition is inactive: -1.71%. To `CN1CCCCC1COC(=O)C1(O)c2ccccc2CCc2ccccc21` (centres undefined) belongs inactive: -10.8%; to `COc1ccccc1OP(C)(=O)Nc1c(C)cccc1C` (centres undefined), inactive: 7.16%. To `CCCOc1ccc(NP(C)(=O)Oc2ccc(Cl)cc2)cc1` (centres undefined) belongs inactive: 3.86%; to `CP(=O)(Nc1ccc(SC(F)(F)F)cc1)Oc1ccccc1` (centres undefined), inactive: -2.99%; to `O=[N+]([O-])c1cc([N+](=O)[O-])c(-n2nnc3ccccc32)c([N+](=O)[O-])c1`, inactive: 5.42%. To `Cc1nc2ccc3ccccc3c2s1.O=[N+]([O-])c1cc([N+](=O)[O-])c(O)c([N+](=O)[O-])c1` belongs inactive: 5.95%; to `CP(=O)(Nc1ccc(SC(F)(F)F)cc1)Oc1ccc(F)cc1` (centres undefined), inactive: -5.59%. As for `CCOP(C)(=S)SCC(=O)NC(C)(CC)C(=O)O` (centres undefined), the activity, negative = inhibition was inactive: 0.656%. To `CP(=O)(Nc1ccc2c(c1)OCCO2)Oc1ccccc1` (centres undefined) belongs inactive: 3.12%; to `Cc1ccccc1NP(C)(=O)Nc1ccccc1C`, inactive: 1.64%; to `CCN(CCCl)Cc1ccccc1C`, inactive: 2.67%. To `COc1ccc(OP(C)(=O)Nc2cccc(Br)c2)cc1` (centres undefined) belongs inactive: -2%; to `COc1ccc(NP(C)(=O)Oc2ccccc2OC)cc1` (centres undefined), inactive: 1.29%; to `CN(C)CCOC(=O)C(O)(c1ccccc1)C1CCCCC1` (centres undefined), inactive: 4.15%.

As to `Cc1cc(-c2cccc3ccccc23)c(C)cn1.O=[N+]([O-])c1cc([N+](=O)[O-])c(O)c([N+](=O)[O-])c1`, the activity, negative = inhibition was inactive: -4.04%.

As to `O=[N+]([O-])c1ccc(OP2(=O)COCCO2)cc1` (centres undefined), the activity, negative = inhibition was inactive: 5.18%.

As for `COc1ccc(OP(C)(=O)Nc2ccc(SC(F)(F)F)cc2)cc1` (centres undefined), the activity, negative = inhibition was inactive: 4.01%. To `CCOC(=O)c1ccc(NP(C)(=O)Oc2ccc(F)cc2)cc1` (centres undefined) belongs inactive: -4.37%; to `CCN(CC)CCCOC(=O)C(O)(c1ccccc1)C1CCCCC1` (centres undefined), inactive: -3.53%. To `CCCCCOc1ccc(NP(C)(=O)Oc2ccc(Cl)cc2Cl)cc1` (centres undefined) belongs inactive: 11.6%. To `CP(=O)(Nc1ccccc1)Oc1ccc(F)cc1` (centres undefined) belongs inactive: -1.54%; to `CC(C)c1ccc(OP(C)(=O)Nc2ccc(SC(F)(F)F)cc2)cc1` (centres undefined), inactive: 9.7%.

Turning to `CP(=O)(Nc1ccccc1F)Oc1ccccc1` (centres undefined), the activity, negative = inhibition is inactive: 1.24%. To `O=C(OCCN1CCN(CCOCc2ccccc2)CC1)C(O)(c1ccccc1)c1ccccc1` belongs inactive: 8.96%; to `CN(C)CCOC(=O)C(O)(c1ccccc1)C1CCCC1` (centres undefined), inactive: -0.621%; to `COc1ccc(OP(C)(=O)Nc2ccccn2)cc1` (centres undefined), inactive: -8.77%. To `Cc1c(NP(C)(=O)Oc2ccc(C(C)C)cc2)c(=O)n(-c2ccccc2)n1C` (centres undefined) belongs inactive: -1.04%; to `O=[N+]([O-])c1cc([N+](=O)[O-])c(Nc2ccccn2)c([N+](=O)[O-])c1`, inactive: 6.24%. To `CCc1ccc(OP(C)(=O)O)cc1` belongs inactive: -5.26%; to `COc1ccccc1OP(C)(=O)Nc1ccc(C)cc1C` (centres undefined), inactive: -14.8%; to `CP(=O)(Nc1ccccn1)Oc1ccccc1` (centres undefined), inactive: 4.85%. With `Cc1cc(C)cc(OP(C)(=O)Nc2cccc(C(F)(F)F)c2)c1` (centres undefined), the activity, negative = inhibition is inactive: -2.57%. To `COc1ccc(OP(C)(=O)Nc2ccccc2Br)cc1` (centres undefined) belongs inactive: 2.67%. On to `COc1ccccc1OP(C)(=O)Nc1ccc(C)c(C)c1` (centres undefined), for which the activity, negative = inhibition was inactive: -10.7%. To `CP(=O)(Nc1ccc(Cl)cc1Cl)Oc1ccccc1` (centres undefined) belongs inactive: -6.38%.

Consider `CP(=O)(OCCOc1ccccc1)OCCOc1ccccc1`, for which the activity, negative = inhibition is inactive: 0.641%.

`CP(=O)(OC12CC3CC(CC(C3)C1)C2)OC12CC3CC(CC(C3)C1)C2`: the activity, negative = inhibition was inactive: 0.116%. To `CCOC(=O)c1ccc(NP(C)(=O)Oc2ccc(Cl)cc2)cc1` (centres undefined) belongs inactive: 1.96%. Turning to `COc1ccc(OP(C)(=O)Nc2ccc(Br)cc2)cc1` (centres undefined), the activity, negative = inhibition was inactive: 5.82%. To `CCN(CC)CC(O)COC(=O)C(O)(c1ccccc1)C1CCCCC1` (centres undefined) belongs inactive: -2.72%; to `CCc1ccc(OP(C)(=O)Nc2cccnc2)cc1` (centres undefined), inactive: 11.2%. To `CP(=O)(Oc1ccccc1)N1CCOC1=O` (centres undefined) belongs inactive: 0.0156%; to `O=C(OCCCN1CCCC1)C(O)(c1ccccc1)C1CCCCC1` (centres undefined), inactive: 7.87%; to `OCCSCCO`, inactive: 2.11%. To `COc1ccccc1OP(C)(=O)Nc1c(C)n(C)n(-c2ccccc2)c1=O` (centres undefined) belongs inactive: 2.3%; to `CP(=O)(Nc1ccc(Cl)cc1)Oc1ccc(F)cc1` (centres undefined), inactive: -0.996%; to `COc1ccccc1OP(C)(=O)Nc1ccccc1Br` (centres undefined), inactive: 0.429%. On to `CC(C)(C)c1ccc(OP(C)(=O)O)cc1`, for which the activity, negative = inhibition was inactive: 3.23%.

As to `CN(C)C(=O)c1c([N+](=O)[O-])cc([N+](=O)[O-])cc1[N+](=O)[O-]`, the activity, negative = inhibition was inactive: -7.2%.
